Reported vapor pressure values for industrial, environmental and drug-like chemicals

Data: OPERA 2.9 data sets, kmansouri/OPERA on GitHub.

Vapor pressures (log10 mmHg) refer to near room temperature, 15 to 30 °C; higher is more volatile.
Cells with "n/a" have no entry in this list.
The databases behind each value are named after "via".

structure (SMILES) | name | log VP (log10 mmHg) | via
O=C(Sc1nnc(S)s1)c1ccccc1 | n/a | -7.992 | eChemPortal
Cc1c(Cl)cccc1[N+](=O)[O-] | 1-Chloro-2-methyl-3-nitrobenzene | -1.824 | eChemPortal
C=S(=C)(C)O[C@@H]1CC(C(=O)OCC)=C[C@H]2OC(C)(C)O[C@H]21 | n/a | -6.164 | eChemPortal
CC1CCOCC1 | Tetrahydro-4-methyl-2H-pyran | 1.349 | eChemPortal
CCCCOc1cccc(F)c1F | 1-Butoxy-2,3-Difluorobenzene | -0.833 | eChemPortal
O=C(O)COCCOCCOCC(=O)O | 2,2'-(Oxybis(2,1-ethanediyloxy))bisacetic acid | -6.201 | eChemPortal
CCOC=C1N=C(c2ccccc2)OC1=O | Oxazolone | -5.194 | OCHEM
Cn1nc(-c2cc(OCC(=O)O)c(Cl)cc2F)c(Cl)c1OC(F)F | Pyraflufen | -4.445 | OCHEM
C=COCCOC | 1-Methoxy-2-vinyloxyethane | 1.255 | PubChem
CCCCC(CC)C1OCCO1 (configuration not stated) | 1,3-Dioxolane, 2-(1-ethylpentyl)- | -0.833 | eChemPortal
CCC(=O)C(C)CO (configuration not stated) | 3-Pentanone, 1-hydroxy-2-methyl- | -0.928 | eChemPortal
CCOC(=O)N1C(=O)c2ccccc2C1=O | n/a | -4.473 | eChemPortal
CC(C)C1CCC(CO)CC1 (configuration not stated) | [4-(Propan-2-yl)cyclohexyl]methanol | -1.773 | eChemPortal
CCCCC(CC)CNc1ccc(NCC(CC)CCCC)c2c1C(=O)c1c(O)ccc(O)c1C2=O (configuration not stated) | n/a | -6.482 | eChemPortal
CCOC(=O)c1ccc(N)cc1 | Benzocaine | -3.585 | OCHEM
CCCC[C@H]1CC[C@H](C2CCC(=O)CC2)CC1 | n/a | -4.523 | eChemPortal
NCC1CCCC(CN)C1 (configuration not stated) | 1,3-Cyclohexanedimethanamine | -0.593 | eChemPortal
CC(=O)OCC1CCC(C)=CC1C (configuration not stated) | 2,4-Dimethylcyclohex-3-ene-1-methyl acetate | -0.867 | eChemPortal
CC1=C(C=O)C(C)(C)CC=C1 | Safranal | -1.112 | eChemPortal
COc1ccc(C(=O)c2ccccc2O)c(O)c1 | 2,2'-Dihydroxy-4-methoxybenzophenone | -6.36 | eChemPortal
NCCCCCCCCCCCC(=O)O | 12-Aminododecanoic acid | -13.47 | eChemPortal
CC(C=O)Cc1cccc(C(C)(C)C)c1 (configuration not stated) | 3-(m-tert-Butylphenyl)-2-methylpropionaldehyde | -2.497 | eChemPortal
CC1=CCC(C=CC(C)C(C)O)C1(C)C (configuration not stated) | n/a | -2.176 | eChemPortal
Clc1cc(Cl)cc(-c2ccc(Cl)c(Cl)c2)c1 | n/a | -4.804 | OCHEM
O=C=Nc1ccc(Cl)c(C(F)(F)F)c1 | 4-Chloro-3-(trifluoromethyl)phenyl isocyanate | -0.034 | eChemPortal
CCCCCCCCCCCC[n+]1ccccc1.[Cl-] | 1-Dodecylpyridinium chloride | -5.94 | eChemPortal
CCCCCCCCCCCC1=NCCN1CCO | 1H-Imidazole-1-ethanol, 4,5-dihydro-2-undecyl- | -5.558 | eChemPortal
CC1CCC2CC1C2(C)C (configuration not stated) | Pinane | 0.438 | OFMPub
CCCC1CCC(c2ccc(-c3cc(F)c(F)c(F)c3)cc2)CC1 (configuration not stated) | n/a | -5.791 | eChemPortal
CNCCOCCN(C)C | N,N-Dimethyl-2-[2-(methylamino)ethoxy]ethan-1-amine | -0.267 | eChemPortal
CCCCCCC(C)Nc1ccc(Nc2ccccc2)cc1 (configuration not stated) | N-(1-Methylheptyl)-N'-phenyl-1,4-benzenediamine | -6.302 | OFMPub
C#CCOC(=O)NCCCC | 2-Propynyl butylcarbamate | -1.343 | eChemPortal
C=CC(C)=CCC1OC1(C)C (configuration not stated) | 2,2-Dimethyl-3-(3-methylpenta-2,4-dienyl)oxirane | -0.318 | eChemPortal
CC1(C)CC[C@H]2O[C@]23C(C)(C)[C@H]2CC[C@@]13C2 | n/a | -1.965 | eChemPortal
NC(=O)c1cccnc1 | Niacinamide | -5.472 | eChemPortal
C=CC(=O)OCC(C)(C)COC(=O)C=C | 2,2-Dimethyl-1,3-propanediyl diacrylate | -1.523 | PubChem
Clc1cc(Cl)c(Cl)c(-c2c(Cl)cc(Cl)c(Cl)c2Cl)c1 | 2,2',3,3',4,5',6-Heptachlorobiphenyl | -5.275 | OCHEM
C[C@]12CCC(=O)C=C1CC[C@@H]1[C@@H]2CC[C@@]2(C)[C@H]1CC[C@@]2(O)C#CCO | 17beta-Hydroxy-17-(3-hydroxy-1-propynyl)androst-4-ene-3-one | -12.99 | eChemPortal
CCCCCCC1CCCC(=O)O1 (configuration not stated) | 6-Hexyltetrahydro-2H-pyran-2-one | -3.219 | eChemPortal
CCCCCOC(=O)c1ccccc1O | Pentyl 2-hydroxybenzoate | -2.523 | OFMPub, eChemPortal
Cc1ccc(C2=CCC(C3CCC4(CC3)OCCO4)CC2)cc1 (configuration not stated) | n/a | -8.282 | eChemPortal
CC(=O)C(=O)CC(C)C | 5-Methyl-2,3-hexanedione | 0.939 | OCHEM
Clc1cc(-c2c(Cl)cc(Cl)c(Cl)c2Cl)cc(Cl)c1Cl | 2,3,3',4,4',5',6-Heptachlorobiphenyl | -5.666 | OCHEM
FC(F)=C(F)OC(F)(F)C(F)(F)C(F)(F)F | Perfluoropropyl trifluorovinyl ether | 2.615 | eChemPortal
C=CCCCCCCCC(=O)OC | methyl 9-decenoate | -0.999 | eChemPortal
Clc1cc(Cl)cc(-c2c(Cl)c(Cl)c(Cl)c(Cl)c2Cl)c1 | 2,3,3',4,5,5',6-Heptachlorobiphenyl | -5.666 | OCHEM
Nc1cc(Cl)ccc1Oc1ccc(Cl)cc1Cl | 5-Chloro-2-(2,4-dichlorophenoxy)aniline | -5.886 | eChemPortal
CCOc1ccccc1OCC | 1,2-Diethoxybenzene | -1.19 | eChemPortal
CCCCCCCCCCCCn1ccnc1 | 1-Dodecyl-1H-imidazole | -4.18 | eChemPortal
C[N+](C)(C)CCOP(=O)([O-])[O-].[Ca+2].[Cl-] | Calcium phosphorylcholine | -13.16 | eChemPortal
CO[Si](C)(OC)C1CCCCC1 | Cyclohexyl(methyl)dimethoxysilane | -0.386 | eChemPortal
CC(C)c1ccc(CCC=O)cc1 | Benzenepropanal, 4-(1-methylethyl)- | -2.216 | eChemPortal
COCCOCCOCCOCCO | 2,5,8,11-Tetraoxatridecan-13-ol | -0.974 | PubChem, eChemPortal

Extract of 8 entries:

{"smiles": "C=CC(=O)OCC(C)(C)COC(=O)C=C", "name": "2,2-Dimethyl-1,3-propanediyl diacrylate", "log VP (log10 mmHg)": "-1.523", "via": "PubChem"}
{"smiles": "CCCCCCC(C)Nc1ccc(Nc2ccccc2)cc1", "stereo": "configuration not stated", "name": "N-(1-Methylheptyl)-N'-phenyl-1,4-benzenediamine", "log VP (log10 mmHg)": "-6.302", "via": "OFMPub"}
{"smiles": "C=S(=C)(C)O[C@@H]1CC(C(=O)OCC)=C[C@H]2OC(C)(C)O[C@H]21", "log VP (log10 mmHg)": "-6.164", "via": "eChemPortal"}
{"smiles": "C[N+](C)(C)CCOP(=O)([O-])[O-].[Ca+2].[Cl-]", "name": "Calcium phosphorylcholine", "log VP (log10 mmHg)": "-13.16", "via": "eChemPortal"}
{"smiles": "FC(F)=C(F)OC(F)(F)C(F)(F)C(F)(F)F", "name": "Perfluoropropyl trifluorovinyl ether", "log VP (log10 mmHg)": "2.615", "via": "eChemPortal"}
{"smiles": "CCCCCCCCCCCC1=NCCN1CCO", "name": "1H-Imidazole-1-ethanol, 4,5-dihydro-2-undecyl-", "log VP (log10 mmHg)": "-5.558", "via": "eChemPortal"}
{"smiles": "CC1(C)CC[C@H]2O[C@]23C(C)(C)[C@H]2CC[C@@]13C2", "log VP (log10 mmHg)": "-1.965", "via": "eChemPortal"}
{"smiles": "Clc1cc(-c2c(Cl)cc(Cl)c(Cl)c2Cl)cc(Cl)c1Cl", "name": "2,3,3',4,4',5',6-Heptachlorobiphenyl", "log VP (log10 mmHg)": "-5.666", "via": "OCHEM"}

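The numbers are reported measurements, compiled and curated for the OPERA QSAR suite. One number stands for a compound and property, with no spread given. Method and conditions are not stated for these values. Where a salt, mixture or single isomer is drawn, the source does not say that exactly this form was tested. Unmarked limits or estimates from the upstream databases cannot be ruled out.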